The source of these data is publication PMC7616682 (Journal of biological inorganic chemistry : JBIC : a …, 2024).

In general, LogP refers to a log measure of how a compound divides between an organic and an aqueous phase. Read a high LogP as a more lipophilic compound.

The data set in a line: LogP by shake-flask method (n-octanol/phosphate buffer). The note with it: n-octanol/phosphate buffer 50 mM pH 7.4. As for the experimental part: using the "shake-flask" method.[6],[7] In short, phosphate buffer (50 mM, pH 7.4) was saturated with n-octanol by shaking a 1:1 mixture of both solution on a laboratory shaker for 72 h, after which the phases were separated. Stock solutions of each complex were then prepared in dimethylsulfoxide at a concentration of 10 mM. […]
solution with a concentration of 100 µM. From this solution, 1000 µL were transferred into an Eppendorf tube and mixed with 1000 µL of n-octanol. After shaking for 15 min and centrifugation (5 min, 6000 rpm), the two phases were carefully separated, and the contact layer discarded. Then, the absorbance of each phase was recorded with an Agilent 8453 UV/Vis spectrometer.
2 mL solution with a concentration of 100 µM. From this solution, 1000 µL were transferred into an Eppendorf tube and mixed with 1000 µL phosphate buffer. After shaking for 15 min and centrifugation (5 min, 6000 rpm), the phases were carefully separated, and the contact layer discarded. Then, the absorbance of each phase was recorded with an Agilent 8453 UV/Vis spectrometer.

Regarding “[Au(triazolatoC6H5,biotin)(PPh3)] [Compound 12]”, the LogP entry is recorded as “highly lipophilic^a”.

In turn, “[Ir(triazolatoC6H5,biotin)(ppy)(terpy]PF6 [Compound 18]” gave a LogP of 0.14.
